Values quoted from earlier work, collected in publication PMC9104152, “Phosphoproteomics Unravel HBV Triggered Rewiring of Host Phosphosignaling Events” (International Journal of Molecular Sciences, 2022).

Molecular target: CK2
Conditions: target CK2; reported value, no reference given; cited from earlier work

**Q.** With `CN(C)c1nc2c(Br)c(Br)c(Br)c(Br)c2[nH]1` [DMAT] as the molecule, how does the Ki read?
**A.** 40 nM
